{"sequences": {"note": "Protein sequences, listed by entry. Tags and fused reporters are not part of them. Residues count along the entry.", "UniProt P30874, 1-314, stated change not applied": "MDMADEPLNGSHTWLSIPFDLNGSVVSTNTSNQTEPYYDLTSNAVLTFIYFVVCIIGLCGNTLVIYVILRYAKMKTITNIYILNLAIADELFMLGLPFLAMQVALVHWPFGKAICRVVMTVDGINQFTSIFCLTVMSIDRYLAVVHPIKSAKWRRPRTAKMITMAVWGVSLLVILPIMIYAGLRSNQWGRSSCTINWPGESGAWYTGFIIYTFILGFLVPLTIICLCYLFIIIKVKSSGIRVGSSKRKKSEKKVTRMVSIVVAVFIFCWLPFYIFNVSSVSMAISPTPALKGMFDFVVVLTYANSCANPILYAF"}, "source": "patent US8278066B2", "about": "“Truncated somatostatin receptors” (Board of Regents, The University of Texas System, priority 2001, dated 2012)", "key": {"[1]": {"target": "tumors derived from clones expressing full length SSTR2A fusion protein (Homo sapiens, UniProt P30874)", "details": "mouse, in vivo"}, "[2]": {"details": "doses of radiotracer similar to those used in humans"}, "[3]": {"target": "tumors derived from clones tail-4 and tail-1 (C-terminus cytoplasmic domain deleted) (Homo sapiens, UniProt P30874)", "test": "Biodistribution, tumors from tail minus clones", "details": "24 hours"}}}
{"substance": "^111In-octreotide", "values": [{"measurement": "radioactivity/gram in tumors, order", "setting": "[1]", "value": "greatest radioactivity/gram was in tumors derived from clone 21, followed by clone 3, clone 11"}, {"measurement": "uptake of radiotracer/gram, clone 11 tumors versus vector tumors", "setting": "[1]", "value": "more uptake of radiotracer/gram than tumors derived from cells transfected with vector only"}, {"measurement": "Radioactivity per gram in organs, order", "setting": "[2]", "value": "greatest in the kidneys, followed by the liver, gastrointestinal tract, lungs and spleen"}, {"measurement": "blood and muscle uptake per gram", "setting": "[2]", "value": "quite low"}, {"measurement": "biodistribution in tumors, tail-4 versus clone 21", "setting": "[3]; similar expression levels and receptor binding", "value": "greater biodistribution is seen in tumors derived from tail-4 than clone 21"}, {"measurement": "radiotracer uptake in tumors, tail-1 versus clone 11", "setting": "[3]; similar receptor expression and ligand binding", "value": "greater radiotracer uptake was seen in tumors derived from clone tail-1 than clone 11"}]}
